# Test system: E. coli ATCC 25922
# Test: Antibiotic interaction assay (Wimley), 2/3 broth microdilution: MIC alone, MIC of combination, FICI
# Assay type: cell-based
# Experimental: Synergy was evaluated by an antibiotic interaction assay (Wimley, 2015) Using the method of Wimley (BBA, 2015, v. 1848(1), pp. 8-15), synergy between the membrane-activating peptide and an antibiotic was measured by an FICI value (FIG. 17). […] Thus, to accurately examine synergy, a ⅔ dilution method which observes MIC at denser concentration intervals is advantageous over a ½ dilution method in statistical terms. Namely, starting with the concentration of the membrane-activating peptide (first line) which corresponds to 3×MIC, ⅔ dilution is performed, and the MIC of the peptide is measured. In the same manner, the MIC of an antibiotic or repositioning drug (second line) is measured. In the third line, the two compounds are mixed after putting half amount each, and the MIC thereof is measured.
# A broth microdilution technique (⅔ dilution) was used together with an MH broth. E. coli treated with an antibiotic and the peptide was incubated in a 37° C. incubator for 18 hours.
# To measure the synergy between the membrane-activating peptides and the repositioning drug, a 10× compound was prepared, and then serially diluted ⅔-fold with distilled water. […] After addition of the bacterial cells, plate was incubated at 37° C. for 18 hours, and then the OD value at UV-Vis (600 nm) was measured. […]
structure (smiles),measurement,value
CN[C@H](CC(C)C)C(=O)N[C@H]1C(=O)N[C@@H](CC(N)=O)C(=O)N[C@H]2C(=O)N[C@H]3C(=O)N[C@H](C(=O)N[C@H](C(=O)O)c4cc(O)cc(O)c4-c4cc3ccc4O)[C@H](O)c3ccc(c(Cl)c3)Oc3cc2cc(c3O[C@@H]2O[C@H](CO)[C@@H](O)[C@H](O)[C@H]2O[C@H]2C[C@](C)(N)[C@H](O)[C@H](C)O2)Oc2ccc(cc2Cl)[C@H]1O [vancomycin],synergy with KL-L9P,not synergistic

# Reference: patent US20180339016A1 (priority 2015, published 2018)
